Screening results from PubChem BioAssay.
Rows were chosen to be rich in hits. Some 0.46% of all compounds tested hit in one or more screens of this group.
HCMV UL50-53 inh: disrupts HCMV UL50-UL53 complex binding; hit rate 0.15% among 190,000; HTRF UL50-UL53 interaction, normalized percent inhibition; inhibition, % (test concentration not listed); in the data active = inhibition above about 27%, passing the limit was not always enough
GIV Gai3 FP: GIV-Galpha-i interaction inhibition. P08753. Galpha-i3/FITC-GIV peptide fluorescence polarization, 90 min; active compounds read low; scaled: aluminum fluoride 0%, vehicle 100%. percent of control (FP), % (test concentration not listed). 210,000 compounds, 0.42% hits. AID 1224905;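 active = replicate mean at 85% of control or lower, very high polarization wells dropped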;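 also: lower values mean more displacement of the GIV peptide from Galpha-i3; wells of about 15 µL received 100 nL stock; the first replicate is given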
A number is an active result; 0 = inactive; - = no result.

SMILES | HCMV UL50-53 inh | GIV Gai3 FP
NS(=O)(=O)c1ccc(-n2nncc2-c2ccccc2)cc1 | 0 | -
CN1/C(=C/C=C/c2oc3ccccc3[n+]2C)Oc2ccccc21 | - | -5.9
Cc1nn(C(=O)Nc2cc(F)ccc2F)c2ccccc12 | 0 | 0
Oc1c(C=NC2CCCCC2)[nH]c2ccc(Br)c(Cl)c12 | - | -64
Oc1c(C=NCc2ccccc2)[nH]c2ccc(Br)c(Cl)c12 | - | 0
CCn1cnc(S(=O)(=O)N2CCC(C(=O)N3c4ccccc4CC3C)CC2)c1 (stereo not given) | 0 | 0
COCCNc1nc(SCc2cc(C(C)=O)ccc2OC)nc2ccccc12 | - | 0
CN1/C(=C\C=C2\C(=O)Oc3ccccc3C2=O)C(C)(C)c2ccccc21 | - | -32
Cc1c(N=C/C=C2\N(C)c3ccccc3C2(C)C)c(=O)n(-c2ccccc2)n1C | 0 | -
CC(=O)NCc1nc(-c2ccc3c(c2)[nH]c(=O)c(=O)n3C)no1 | 0 | 0
O=C(c1ccc(CN2C(=O)CCn3nc(-c4ccccc4)cc32)cc1)N1CCN(c2ccccn2)CC1 | 0 | 0
COc1ccc(-n2nc3c(c2NC(=O)c2ccc(S(=O)(=O)N4CCCCC4)cc2)CSC3)cc1 | 0 | 0
Cc1ccccc1-n1nc2c(c1NC(=O)c1ccc(S(=O)(=O)N3CCCCC3)cc1)CSC2 | 40 | 0
Cc1ccc(-n2nc3c(c2NC(=O)c2ccc(S(=O)(=O)N4CCCCC4)cc2)CSC3)c(C)c1 | 0 | 0
COc1ccc(-n2nc3c(c2NC(=O)c2ccc(S(=O)(=O)N4CCCC4)cc2)CSC3)cc1 | 58 | 0
Cc1ccc(-n2nc3c(c2NC(=O)c2ccc(S(=O)(=O)N4CCOCC4)cc2)CSC3)c(C)c1 | 90 | 0
Cc1cccc(-n2nc3c(c2NC(=O)c2ccc(S(=O)(=O)N4CCCCC4)cc2)CSC3)c1C | - | 0
CC(C)NC(=O)Nc1ccccc1C(=O)N=c1sc2ccccc2n1C | 0 | -
CC(=O)N1c2cc(C)c(C)cc2-c2c(ssc2=S)C1(C)C | - | 0
CCOC(=O)c1c(NC(=O)C(C)n2c(-n3nc(C)cc3C)nc(C)c(C)c2=O)sc2c1CCC2 (stereo not given) | - | 0
COc1ccc(NC(=O)Cn2c(Cc3ccccc3)nc3sc4c(c3c2=O)CCCC4)c(OC)c1 | 0 | 0
COc1cccc(C2=N/C(=C/c3ccccc3OC)C(=O)N2c2ccc(OC)c(OC)c2)c1 | - | 0
COc1ccccc1/C=C1\N=C(c2ccc(OC)c(OC)c2)N(c2ccc(Cl)c(Cl)c2)C1=O | - | 0
COc1cccc(C2=N/C(=C\c3ccccc3OC)C(=O)N2c2ccc(C)c(F)c2)c1 | - | 61
COc1ccc(/C=C2\N=C(c3ccc(Cl)cc3)N(c3ccccc3Br)C2=O)cc1OC | - | 67
SMILES | HCMV UL50-53 inh | GIV Gai3 FP
COc1ccc(/C=C2\N=C(c3ccc(Cl)cc3)N(c3cc(Cl)ccc3C)C2=O)cc1OC | - | 0
COc1ccccc1/C=C1\N=C(c2ccc(OC)c(OC)c2)N(c2ccc(Cl)cc2)C1=O | - | 77
N/C(=N\O)c1cc(Cl)cc(Cl)c1 | 0 | 0
CCCCOc1ccc(C2CC(=O)Nc3c2c(C)nn3-c2ccc3nnc(C)n3n2)cc1OCC (stereo not given) | - | 75
CCCOc1ccc(C2CC(=O)Nc3c2c(C)nn3-c2ccc3nnc(C)n3n2)cc1OCC (stereo not given) | - | 0
Cc1cc(OCC(=O)Oc2c(C)cc(Br)cc2Cl)no1 | 0 | -
C1=C(c2ccccc2)Nc2ncnn2C1c1ccccc1 (stereo not given) | 0 | -
COc1cc(C2C=C(c3cccs3)Nc3ncnn32)cc(OC)c1OC (stereo not given) | - | -0.1
O=C(Nc1cc(-c2nc3ccccc3o2)ccc1Cl)c1ccc2c(c1)OCCO2 | 0 | 0
O=C(Nc1ccc(S(=O)(=O)Nc2nccs2)cc1)c1csnn1 | 0 | 0
CCOC(=O)c1c(-c2cccs2)csc1/N=C/c1c(O)n(C)c2ccccc12 | - | 44
CCOC(=O)c1c(/N=C/c2c(O)n(C)c3ccccc23)sc(C)c1C | - | 52
CCOC(=O)c1c(-c2cccs2)csc1NC=O | - | 0
CCOC(=O)c1c(/N=C/c2c(O)n(C)c3ccccc23)sc2c1CCC2 | - | 0
COc1ccc(Br)c2c1-c1nc(NC(C)=O)sc1C2 | 0 | 0
O=C1/C(=C/c2cn(-c3ccccc3)nc2-c2ccc(Cl)cc2)SC(=S)N1C1CCS(=O)(=O)C1 (stereo not given) | 0 | 0
O=C1/C(=C/C2=Cc3ccccc3OC2)SC(=S)N1C1CCS(=O)(=O)C1 (stereo not given) | 0 | -35
N#Cc1nc(-c2ccc(S(=O)(=O)N3CCCCC3)cc2)oc1N1CCCC1 | 0 | 0
O=CN(/C=C1\Sc2ccccc2C1=O)c1cccc2ccccc12 | 0 | -0.2
CCC(=O)N(C)/C=C1\Sc2ccccc2C1=O | 0 | 0
CC(=O)[C@]1(O)Cc2c(O)c3c(c(O)c2[C@@H](O[C@H]2C[C@H](N)[C@H](O)[C@H](C)O2)C1)C(=O)c1ccccc1C3=O | 0 | -46
COc1cccc2c1C(=O)c1c(O)c3c(c(O)c1C2=O)C[C@@](O)(C(=O)CO)CC3O[C@H]1CC(N)C(O)C(C)O1 (stereo not given in full) | 0 | -
COc1cccc2c1C(=O)c1c(O)c3c(c(O)c1C2=O)C[C@@](O)(C(C)=O)CC3O[C@H]1CC(N)C(O)C(C)O1 (stereo not given in full) | 0 | -
COc1cccc2c1C(=O)c1c(O)c3c(c(O)c1C2=O)C[C@@](O)(C(C)=O)C[C@@H]3O[C@H]1C[C@H](N)[C@H](O)[C@H](C)O1 | 0 | 47
N#Cc1c(N)n(Cc2ccccc2)c2nc3ccccc3nc12 | 0 | -
SMILES | HCMV UL50-53 inh | GIV Gai3 FP
C=CCn1c(NS(=O)(=O)c2ccccc2)c(C#N)c2nc3ccccc3nc21 | 65 | -
Cc1ccc(S(=O)(=O)Nc2c(C#N)c3nc4ccccc4nc3n2Cc2ccccc2)cc1 | 77 | -
N#Cc1c(NS(=O)(=O)c2ccccc2)n(-c2ccccc2)c2nc3ccccc3nc12 | 0 | -
Cn1c(=O)c2c(-c3cccc(Br)c3)n(CCc3c[nH]c4ccccc34)cc2n(C)c1=O | 0 | 0
COc1cc(C=Cc2ccc(O)cc2)cc(OC)c1 | 0 | -
N#Cc1c(N)nc(SCC(N)=O)c(C#N)c1-c1ccc(Br)cc1 | 66 | 0
COC(=O)CSc1nc(N)c(C#N)c(-c2ccccc2)c1C#N | 0 | 0
COc1cc(-c2c(C#N)c(N)nc(SCC(N)=O)c2C#N)cc(OC)c1OC | - | 0
N#Cc1c(N)nc(SCC(=O)c2ccc3ccccc3c2)c(C#N)c1-c1ccccc1 | 21 | 0
CC(C)(C)C(=O)CSc1nc(N)c(C#N)c(-c2cccs2)c1C#N | 60 | -
CCOc1ccc(-c2c(C#N)c(N)nc(SCC(=O)c3ccccc3)c2C#N)cc1 | 0 | 0
CCOC(=O)CC(=O)CSc1nc(N)c(C#N)c(-c2cccs2)c1C#N | - | 0
CCOC(=O)CSc1nc(N)c(C#N)c(-c2ccc(OCC)cc2)c1C#N | 44 | 0
CCCNC(=O)CCn1cnc2oc(C)c(C)c2c1=O | 0 | 0
NS(=O)(=O)c1ccc(CCNC(=O)c2cccc(-n3nnc4cccnc43)c2)cc1 | 0 | 0
CCN(CC)c1nc(C)nc2sc(C(=O)Nc3ccc(F)cc3F)c(C)c12 | - | 0
CCOC(=O)Cn1cc(/C=C2\C(=O)NC(=O)N(c3ccc(Br)cc3)C2=O)c2ccccc21 | 0 | 0
CCOC(=O)Cn1cc(/C=C2\C(=O)NC(=O)N(c3ccc(F)cc3)C2=O)c2ccccc21 | - | -36
O=c1nc(SCc2ccccc2F)c2c(n1C1CCCCC1)CCC2 | 0 | 0
O=C(O)CSc1nn(-c2ccccc2)c(=S)s1 | 0 | -
